TDP1 inh = TDP1 (human) enzyme inhibition; 0.28% of 350,000 active; Q9NUW8; recombinant TDP1, AlphaScreen DNA substrate cleavage; Potency, µM (top dose mostly 130 µM), without a hit: at the top dose activity change, negative = inhibition, most hits filed as inhibitors; further: potency means the concentration at half of the fitted maximal effect; on the % scale 0 is the no-effect control and ±100 the full control effect; nearly all actives have a fitted effect of over 40% in size
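Tdp1 1 nM final; 15 min RT w/ cpd; substrate 15 nM, 5 min; beads 10 ug/ml, 10 min; AlphaScreen read. Neg ctrl: no enzyme.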
TDP1 cell noCPT = qHTS for Inhibitors of human tyrosyl-DNA phosphodiesterase 1 (TDP1): qHTS in cells in absence of CPT; DT40 Tdp1-/- hTDP1 cells, no CPT, ATP luminescence, 48 h; Potency, µM (series often up to 46.2 µM), without a hit: top-dose activity change, negative = growth inhibition, usual class: inhibitors; 15% of 420,000 active; AID 686978, 2013; further: potency means the concentration at half of the fitted maximal effect; on the % scale 0 is the no-effect control and ±100 the full control effect; nearly all actives have a fitted effect of over 55% in size
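Cells were dispensed at 400 per well, compounds added by pin tool, plates incubated ≥48 hr at 37 °C, then CellTiter-Glo added for 30 min at room temperature before luminescence reading. Line: DT40 Tdp1-/- complemented with hTDP1; camptothecin omitted.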
uPA generation = cell surface uPA generation inhibition; 0.31% of 330,000 active; Potency, µM (top dose mostly 38.3 µM), without a hit: at the top dose activity change, negative = inhibition, most hits filed as inhibitors; AID 540303; cell surface uPA generation assay, qHTS; active means well fitted inhibition curve with a large enough effect; inconclusive means small, poorly fitted or top-dose-only effect; inactive means no such curve, though single readings can be large or run the other way; tested in mouse RAW 264.7 cells; further: potency means the concentration at half of the fitted maximal effect; on the % scale 0 is the no-effect control and ±100 the full control effect; nearly all actives have a fitted effect of over 55% in size
miR-21 reporter = miR-21 reporter, rising signal | AID 2288 | HeLa miR-21 FLuc reporter, luciferase, 48 h | 340,000 tested, under 10 active | Potency, µM (titrated, usually from 38.3 µM), for the others: at the top dose reporter change, positive = more light; active = well fitted rising curve with a large enough effect; inconclusive = small, poorly fitted or top-dose-only effect; inactive = no such curve, though single readings can be large or run the other way;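 also: % of control where 0% means no effect; miR-21 action dims this reporter so a rising signal means less miR-21 action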
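HeLa cells stably expressing CMV-driven firefly luciferase with a downstream miR-21 binding sequence, endogenously expressing miR-21, were treated with titrations (up to about 40uM final) for 48 hours at 37 degree Celsius. Luciferase luminescence was read after lysis.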
TDP1 cell CPT = DT40-hTDP1 cell growth loss with CPT; chicken DT40 Tdp1-/-;hTDP1 cells + 20 nM CPT, ATP luminescence, 48 h; Potency, µM (series often up to 46.2 µM), inactives show at the highest dose activity change, negative = growth inhibition, most hits filed as inhibitors; 12% of 420,000 active; further: potency means the concentration at half of the fitted maximal effect; on the % scale 0 is the no-effect control and ±100 the full control effect; nearly all actives have a fitted effect of over 55% in size
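Cell growth measured by CellTiter-Glo luminescence after a minimum 48 h, 37 C compound exposure with 20 nM CPT in Tdp1-knockout DT40 cells stably expressing hTDP1, seeded 400/well; qHTS titration format.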
Starred values were filed as active, the others as inactive; ? = inconclusive; / = no result given. Shown are actives, neighbours in structure and some others; about 16% of the full set was active somewhere. Unless noted, the call rests on the fitted dose curve; in most records, active means well fitted curve in the direction sought with a large enough effect; inconclusive means small, poorly fitted or top-dose-only effect, or another doubt; inactive means no such curve, though single readings can be large; an effect the other way counts as inactive or inconclusive.

(1) C[C@@H]1CN([C@@H](C)CO)C(=O)c2cc(Br)cnc2O[C@H]1CN(C)C(=O)c1cccc(F)c1
(2) CN(C)CCN(Cc1ccccc1)C(c1cc2ccccc2o1)c1nnnn1C(C)(C)C (configuration not stated)
(3) CCCCn1nnnc1C(c1cc2ccccc2o1)N(CCN(C)C)Cc1ccccc1 (configuration not stated)
(4) CCCCn1nnc(NC(=O)c2cc3ccccc3o2)n1
(5) CCN(CC(=O)Nc1ccccc1OC)C(=O)CSCC(=O)Nc1cccc(C)c1
(6) CC(C)COC(=O)N1C(COCc2ccccc2)CCC=CS1(=O)=O (configuration not stated)
(7) C[C@H](c1ccccc1)N1C[C@H](COCc2ccccc2)Oc2cc(N3CCC[C@H]3C(N)=O)ccc2S1(=O)=O
(8) CCCCC[C@@H](C)N1C[C@H](COCc2ccccc2)Oc2cc(N3CCC[C@H]3C(N)=O)ccc2S1(=O)=O
(9) O=C(c1ccco1)n1nc(-c2cccnc2)nc1NCc1ccco1
(10) O=C(c1ccccc1)n1nc(-c2ccccc2)nc1NCc1ccco1

assay / compound	1	2	3	4	5	6	7	8	9	10
TDP1 inh	/	/	/	9%	/	-7%	/	/	3%	4%
TDP1 cell noCPT	16%	?	16µM*	-9%	-6%	/	16µM*	6.5µM*	23µM*	-1%
uPA generation	/	/	/	-3%	3%	/	/	/	1%	-15%
miR-21 reporter	/	/	/	-42%	/	/	/	/	-2%	-44%
TDP1 cell CPT	-7%	16µM*	26µM*	3%	-18%	/	?	2.9µM*	?	-24%

(11) COc1ccc(CC(=O)n2nc(-c3ccc(Cl)cc3)nc2NCc2ccco2)cc1
(12) O=C(C(=O)N(C1CCCCC1)C1CCCCC1)c1ccccc1
(13) O=C(NCc1ccccc1)c1ccc(C(=O)N(C2CCCCC2)C2CCCCC2)cc1
(14) CN(C(=O)c1ccc(-c2ccccc2)cc1)C1CCCCC1
(15) CC1CCN(C(=O)CSc2nc3ccccc3c(=O)[nH]2)CC1
(16) Cc1c(-c2cccc(Cl)c2)nc2ccccc2c1C(=O)OCC(=O)Nc1ccc2c(c1)OCO2
(17) O=c1c2ccccc2nc2n1CCN2Cc1ccc(Cl)cc1
(18) O=c1c2ccccc2ncn1Cc1ccc(Cl)cc1
(19) Cc1cccc(C)c1NC(=O)CS(=O)(=O)c1nc(-c2ccc(Cl)cc2)cn1-c1ccccc1
(20) COc1ccc(-c2ccc(=O)n(CC(=O)Nc3ccccc3C(F)(F)F)n2)cc1

assay / compound	11	12	13	14	15	16	17	18	19	20
TDP1 inh	4%	/	2%	/	2%	2%	0%	0%	9%	2%
TDP1 cell noCPT	18µM*	7.3µM*	?	?	2%	?	?	-12%	16µM*	-12%
uPA generation	/	/	/	4%	-1%	4%	-12%	4%	/	/
miR-21 reporter	-36%	/	0%	/	-10%	24%	8%	-6%	-32%	-19%
TDP1 cell CPT	?	10µM*	23µM*	?	5%	?	18µM*	-23%	9.2µM*	-9%

Entries listed so far that have fluorine, in the order listed:
(1) C[C@@H]1CN([C@@H](C)CO)C(=O)c2cc(Br)cnc2O[C@H]1CN(C)C(=O)c1cccc(F)c1
(20) COc1ccc(-c2ccc(=O)n(CC(=O)Nc3ccccc3C(F)(F)F)n2)cc1

assay / compound	1	20
TDP1 inh	/	2%
TDP1 cell noCPT	16%	-12%
uPA generation	/	/
miR-21 reporter	/	-19%
TDP1 cell CPT	-7%	-9%

(continued)
(21) COc1ccccc1-n1cc(-c2ccc(C)cc2)nc1S(=O)(=O)CC(=O)Nc1ccccc1C(F)(F)F
(22) COc1ccc(-c2cn(-c3ccc(C)cc3)c(S(=O)(=O)CC(=O)Nc3ccc(F)cc3)n2)cc1
(23) O=C(/C=C/[C@H]1O[C@@H](n2ccc(=O)[nH]c2=O)[C@H](O)[C@@H]1O)NC1CCN(Cc2ccccc2)C1 (some centres not stated)
(24) Cc1cc2c(cc(C(=O)OCC(=O)NCc3cccs3)n2C(C)C)o1
(25) Cc1ccc(-c2noc(CN(C(=O)C(c3ccccc3)c3ccccc3)C(C)C)n2)cc1
(26) Cc1cc(C)cc(C(=O)N(Cc2nc(-c3ccc(Cl)cc3)no2)C(C)C)c1
(27) COc1ccc(-c2noc(CN(C)C(=O)c3ccoc3C)n2)cc1
(28) CC(C)N(Cc1nc(-c2ccc(Cl)cc2)no1)C(=O)C(c1ccccc1)c1ccccc1

assay / compound	21	22	23	24	25	26	27	28
TDP1 inh	6%	9%	/	12%	1%	5%	20%	4%
TDP1 cell noCPT	16µM*	21µM*	-7%	0.73µM*	15µM*	18µM*	16µM*	?
uPA generation	/	/	/	?	-6%	/	1%	8%
miR-21 reporter	20%	-3%	/	10%	9%	5%	-12%	-4%
TDP1 cell CPT	?	16µM*	-14%	0.82µM*	18µM*	21µM*	?	?
